Data taken from ChEMBL document CHEMBL1133789, “The discovery of anthranilic acid-based MMP inhibitors. Part 1: SAR of the 3-position” (Bioorg Med Chem Lett, 2001).

Amino acid sequences for entries named in this document (tags omitted). A change or cut given only in a name is not applied to a line headed by its entry.
UniProt P14780: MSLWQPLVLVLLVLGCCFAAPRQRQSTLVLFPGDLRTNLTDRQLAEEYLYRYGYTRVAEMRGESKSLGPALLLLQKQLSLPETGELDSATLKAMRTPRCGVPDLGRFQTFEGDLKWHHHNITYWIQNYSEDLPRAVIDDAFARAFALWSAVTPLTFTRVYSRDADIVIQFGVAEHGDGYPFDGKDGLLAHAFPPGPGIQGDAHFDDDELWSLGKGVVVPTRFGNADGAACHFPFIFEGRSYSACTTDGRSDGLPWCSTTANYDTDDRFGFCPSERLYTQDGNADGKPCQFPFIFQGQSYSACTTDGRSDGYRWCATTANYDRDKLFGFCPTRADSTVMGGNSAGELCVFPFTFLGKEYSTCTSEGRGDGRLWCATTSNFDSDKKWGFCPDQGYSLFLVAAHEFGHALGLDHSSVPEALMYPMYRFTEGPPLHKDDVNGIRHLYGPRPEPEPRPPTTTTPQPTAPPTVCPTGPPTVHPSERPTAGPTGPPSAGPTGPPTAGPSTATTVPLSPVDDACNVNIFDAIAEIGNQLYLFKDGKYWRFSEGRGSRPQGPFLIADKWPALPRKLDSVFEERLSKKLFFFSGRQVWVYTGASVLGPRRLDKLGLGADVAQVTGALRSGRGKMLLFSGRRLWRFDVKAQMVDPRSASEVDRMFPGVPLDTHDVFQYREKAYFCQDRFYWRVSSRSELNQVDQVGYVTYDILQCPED

How the values were obtained:
[1] = target: Matrix metalloproteinase-9 (Homo sapiens, UniProt P14780); test: Inhibitory activity against Matrix metalloprotease-9
Collagenase 3 = Collagenase 3 (Homo sapiens, UniProt P45452)

Question: For `COc1ccc(S(=O)(=O)N(Cc2cccnc2)c2c(C)cccc2C(=O)NO)cc1`, which IC50 [1] is on record?
Answer: 5 nM

Question: What about the IC50 (Collagenase 3) of the same compound?
Answer: 8 nM
